In ChEMBL document CHEMBL1140798, “Novel thiol-based TACE inhibitors. Part 2: Rational design, synthesis, and SAR of thiol-containing aryl sulfones” (Bioorg Med Chem Lett, 2008) one finds Ki data, which are given here for 1 compound.

Chains of the proteins cited; added tags and fusions are not shown. Lines headed by an entry give the natural chain unless they say otherwise; changes in a name come on top.
UniProt P78536: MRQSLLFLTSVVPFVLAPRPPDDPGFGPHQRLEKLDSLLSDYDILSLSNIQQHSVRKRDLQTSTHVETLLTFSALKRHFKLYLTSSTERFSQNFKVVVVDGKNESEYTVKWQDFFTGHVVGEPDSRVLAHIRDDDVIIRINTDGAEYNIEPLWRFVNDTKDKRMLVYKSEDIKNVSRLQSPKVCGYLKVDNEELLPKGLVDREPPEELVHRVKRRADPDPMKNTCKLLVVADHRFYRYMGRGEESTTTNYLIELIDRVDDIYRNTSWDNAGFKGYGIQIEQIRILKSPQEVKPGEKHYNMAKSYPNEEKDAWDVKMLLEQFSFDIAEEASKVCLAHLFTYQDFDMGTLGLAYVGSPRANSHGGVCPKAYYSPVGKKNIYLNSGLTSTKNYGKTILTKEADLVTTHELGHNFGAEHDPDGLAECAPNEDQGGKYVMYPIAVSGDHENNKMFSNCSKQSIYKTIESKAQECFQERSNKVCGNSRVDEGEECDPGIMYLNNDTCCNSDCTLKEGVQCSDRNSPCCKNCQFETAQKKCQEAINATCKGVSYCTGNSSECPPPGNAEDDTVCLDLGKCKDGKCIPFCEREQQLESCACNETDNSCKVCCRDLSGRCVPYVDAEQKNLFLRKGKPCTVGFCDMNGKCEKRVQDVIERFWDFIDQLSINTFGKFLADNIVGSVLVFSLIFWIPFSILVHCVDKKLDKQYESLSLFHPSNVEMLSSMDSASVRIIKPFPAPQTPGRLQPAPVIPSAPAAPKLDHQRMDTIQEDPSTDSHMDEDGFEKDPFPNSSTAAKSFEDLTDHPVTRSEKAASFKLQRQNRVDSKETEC

The target of the assay is Disintegrin and metalloproteinase domain-containing protein 17 (Homo sapiens, UniProt P78536). The assay can be described thus: Inhibition of TACE.

Broadly, the Ki is a measure of affinity in units of concentration, obtained from inhibition or displacement. High values mean a looser hold on the target, low ones a stronger hold on the target.

`CC#CCOc1ccc(S(=O)(=O)CCCS)cc1` gave an inhibitory constant (Ki) of 10 nM.
